From PubChem BioAssay AID493098 (Sanford-Burnham Center for Chemical Genomics, 2011) come the findings set out here.

Chains of the proteins cited; added tags and fusions are not shown.
UniProt P51684, whole entry: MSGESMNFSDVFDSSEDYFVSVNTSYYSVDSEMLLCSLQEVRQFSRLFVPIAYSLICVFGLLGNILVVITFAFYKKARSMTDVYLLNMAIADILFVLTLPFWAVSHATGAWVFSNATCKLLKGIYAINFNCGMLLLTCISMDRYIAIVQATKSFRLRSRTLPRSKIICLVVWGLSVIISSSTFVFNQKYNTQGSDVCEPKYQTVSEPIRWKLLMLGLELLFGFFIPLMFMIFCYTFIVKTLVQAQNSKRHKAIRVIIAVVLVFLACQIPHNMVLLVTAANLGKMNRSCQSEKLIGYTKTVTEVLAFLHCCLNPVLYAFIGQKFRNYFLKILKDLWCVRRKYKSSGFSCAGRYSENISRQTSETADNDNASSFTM

Only a part is listed here, and it is no random draw. Activity calls are given as the source filed them.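 How the source made its calls: active means compounds whose inhibition of the agonist-driven luminescence signal at 20 µM reaches about 50% (limit read from the data); inactive means the rest.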

For this experiment, the target named is C-C chemokine receptor type 6 (Homo sapiens) (UniProt P51684). The experiment in a line: CCR6 receptor antagonists, primary screen, cell-based, CHO-K1, luminescence, beta-arrestin, uHTS (AID 493098).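 Further: cells stimulated with CCL20 at 14 nM final; plate controls were DMSO with CCL20 for no effect and DMSO without agonist for full effect.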 Conditions: CHO-K1 CCR6 PathHunter beta-arrestin, CCL20-stimulated, at 20 µM, stronger effect = higher value.
By inhibition is commonly meant the change of the read-out against control, counted positive when it falls. Regarding `CCC(=O)N(c1ccccc1)C1(COC)CCN(CCc2cccs2)CC1`, the inhibition is inactive: 16.3%.
For the compound `CCC(=O)N(c1ccccc1)C1(COC)CCN(CCn2nnn(CC)c2=O)CC1`, the inhibition is inactive: 3.66%.
